Amino acid sequences for entries named in this document (tags omitted). A change or cut given only in a name is not applied to a line headed by its entry.
UniProt O14939: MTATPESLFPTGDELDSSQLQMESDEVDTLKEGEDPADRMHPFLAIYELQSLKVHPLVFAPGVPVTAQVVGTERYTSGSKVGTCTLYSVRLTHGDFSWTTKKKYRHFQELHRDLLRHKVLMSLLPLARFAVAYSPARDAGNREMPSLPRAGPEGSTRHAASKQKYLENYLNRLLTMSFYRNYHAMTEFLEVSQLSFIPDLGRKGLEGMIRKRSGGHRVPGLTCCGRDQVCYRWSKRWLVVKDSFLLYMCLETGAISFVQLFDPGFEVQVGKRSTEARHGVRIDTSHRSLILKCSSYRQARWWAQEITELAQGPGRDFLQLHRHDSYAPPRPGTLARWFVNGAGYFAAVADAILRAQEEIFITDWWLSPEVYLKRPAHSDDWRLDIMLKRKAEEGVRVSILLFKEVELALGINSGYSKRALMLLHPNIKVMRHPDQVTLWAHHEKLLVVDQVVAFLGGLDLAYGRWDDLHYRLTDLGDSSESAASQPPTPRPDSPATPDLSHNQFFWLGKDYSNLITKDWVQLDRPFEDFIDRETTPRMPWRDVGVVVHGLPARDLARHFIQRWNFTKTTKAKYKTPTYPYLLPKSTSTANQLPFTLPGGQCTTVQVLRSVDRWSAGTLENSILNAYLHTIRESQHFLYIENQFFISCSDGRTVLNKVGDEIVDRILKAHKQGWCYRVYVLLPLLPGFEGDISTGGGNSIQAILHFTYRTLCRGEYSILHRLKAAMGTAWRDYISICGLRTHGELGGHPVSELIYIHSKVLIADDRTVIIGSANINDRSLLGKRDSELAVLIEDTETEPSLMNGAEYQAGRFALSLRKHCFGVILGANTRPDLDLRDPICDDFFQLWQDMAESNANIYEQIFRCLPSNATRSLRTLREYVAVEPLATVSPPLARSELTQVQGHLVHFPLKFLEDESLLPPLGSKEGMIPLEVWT

According to ChEMBL document CHEMBL1153994:

Tests used:
HEK293 = assay: Selectivity for PLD1 in human Calu1 cells over GFP-labeled PLD2 in human HEK293 cells; assay type: cell-based
Phospholipase D1 = biological target: T1, Phospholipase D1 (Homo sapiens, UniProt Q13393); assay: Inhibition of PLD1 in human Calu1 cells; assay type: cell-based, Calu-1
T1 sequence (Q13393 whole entry): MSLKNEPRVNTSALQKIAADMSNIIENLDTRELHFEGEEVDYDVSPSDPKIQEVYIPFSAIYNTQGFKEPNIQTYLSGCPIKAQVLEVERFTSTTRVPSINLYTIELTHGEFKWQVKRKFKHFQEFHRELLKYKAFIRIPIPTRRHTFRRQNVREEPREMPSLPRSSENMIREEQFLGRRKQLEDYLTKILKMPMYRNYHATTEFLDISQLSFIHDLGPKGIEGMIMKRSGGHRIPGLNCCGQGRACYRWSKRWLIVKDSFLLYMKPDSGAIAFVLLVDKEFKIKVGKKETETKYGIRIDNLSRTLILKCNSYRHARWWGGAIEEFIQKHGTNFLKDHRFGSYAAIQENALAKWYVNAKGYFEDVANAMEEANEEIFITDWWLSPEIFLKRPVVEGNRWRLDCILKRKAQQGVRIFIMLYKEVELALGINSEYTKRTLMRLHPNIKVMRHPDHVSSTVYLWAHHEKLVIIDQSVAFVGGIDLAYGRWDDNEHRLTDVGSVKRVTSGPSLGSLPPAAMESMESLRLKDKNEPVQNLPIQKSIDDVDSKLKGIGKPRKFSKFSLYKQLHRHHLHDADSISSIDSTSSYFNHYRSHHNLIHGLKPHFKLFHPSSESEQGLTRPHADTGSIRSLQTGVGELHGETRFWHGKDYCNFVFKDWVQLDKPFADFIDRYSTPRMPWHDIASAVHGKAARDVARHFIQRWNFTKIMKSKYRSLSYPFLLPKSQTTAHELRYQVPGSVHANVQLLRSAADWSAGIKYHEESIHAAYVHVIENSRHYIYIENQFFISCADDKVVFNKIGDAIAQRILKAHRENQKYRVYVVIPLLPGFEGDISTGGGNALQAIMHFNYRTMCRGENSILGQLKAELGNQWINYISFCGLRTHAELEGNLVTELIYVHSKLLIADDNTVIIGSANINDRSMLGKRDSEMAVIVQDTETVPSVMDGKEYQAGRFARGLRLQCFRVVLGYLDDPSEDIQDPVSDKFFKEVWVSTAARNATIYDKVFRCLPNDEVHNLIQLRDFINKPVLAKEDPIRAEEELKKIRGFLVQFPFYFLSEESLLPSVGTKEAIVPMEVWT

Phospholipase D2 = Phospholipase D2 (Homo sapiens, UniProt O14939); assay: Inhibition of GFP-labeled PLD2 in human HEK293 cells; assay type: cell-based

| Structure (SMILES) | fold change (FC) (HEK293) | IC50 (Phospholipase D1) [nM] | IC50 (Phospholipase D2) [nM] |
| --- | --- | --- | --- |
| C[C@@H](CN1CCC(n2c(=O)[nH]c3cc(Br)ccc32)CC1)NC(=O)[C@H]1C[C@@H]1c1ccccc1 | > 1700 |  |  |
| C[C@@H](CN1CCC2(CC1)C(=O)NCN2c1ccccc1)NC(=O)c1ccc2ccccc2c1 |  | 25 | 140 |
